Source: ChEMBL document CHEMBL3886202, “Substituted aminoquinazolines useful as kinases inhibitors” (2016)

Sequences of proteins named here, by UniProt entry; tags and fusion partners are left off.
UniProt P00533, whole entry: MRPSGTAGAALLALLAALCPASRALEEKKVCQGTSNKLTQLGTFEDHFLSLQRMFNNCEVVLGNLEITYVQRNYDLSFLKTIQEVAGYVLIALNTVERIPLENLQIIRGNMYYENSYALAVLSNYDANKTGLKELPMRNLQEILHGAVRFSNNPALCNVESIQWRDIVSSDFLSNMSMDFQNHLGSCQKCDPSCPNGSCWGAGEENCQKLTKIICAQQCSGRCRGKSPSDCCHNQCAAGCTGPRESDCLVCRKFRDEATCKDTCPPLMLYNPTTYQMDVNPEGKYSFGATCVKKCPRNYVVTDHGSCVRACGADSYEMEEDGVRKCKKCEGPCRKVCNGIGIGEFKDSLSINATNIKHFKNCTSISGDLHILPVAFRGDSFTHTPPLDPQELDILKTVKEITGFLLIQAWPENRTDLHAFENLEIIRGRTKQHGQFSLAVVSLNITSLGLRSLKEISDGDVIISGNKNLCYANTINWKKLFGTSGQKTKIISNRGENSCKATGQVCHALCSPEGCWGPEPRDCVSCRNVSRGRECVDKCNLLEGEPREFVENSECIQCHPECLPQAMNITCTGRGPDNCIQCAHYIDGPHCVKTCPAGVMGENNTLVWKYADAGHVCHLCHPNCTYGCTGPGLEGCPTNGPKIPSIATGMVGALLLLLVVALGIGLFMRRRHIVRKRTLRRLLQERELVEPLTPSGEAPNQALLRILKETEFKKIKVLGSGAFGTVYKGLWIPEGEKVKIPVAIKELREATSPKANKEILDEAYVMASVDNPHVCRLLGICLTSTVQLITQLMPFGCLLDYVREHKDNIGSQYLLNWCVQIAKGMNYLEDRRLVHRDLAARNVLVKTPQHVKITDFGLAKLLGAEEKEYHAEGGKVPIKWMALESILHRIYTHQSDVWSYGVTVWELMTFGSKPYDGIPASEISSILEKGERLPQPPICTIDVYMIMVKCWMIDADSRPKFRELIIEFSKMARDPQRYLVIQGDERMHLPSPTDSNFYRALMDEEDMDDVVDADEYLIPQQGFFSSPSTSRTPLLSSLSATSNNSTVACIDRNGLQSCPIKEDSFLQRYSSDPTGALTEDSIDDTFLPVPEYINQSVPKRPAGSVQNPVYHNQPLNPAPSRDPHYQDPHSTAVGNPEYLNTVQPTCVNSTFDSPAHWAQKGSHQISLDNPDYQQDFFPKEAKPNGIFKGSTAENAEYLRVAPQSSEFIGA

Biological target: Epidermal growth factor receptor (Homo sapiens, UniProt P00533)
Assay: Enzyme Assay: BT474 Cell Line: 1. 5×10^3 cells per well in 100 μl of medium were seeded in 96-well plate, here the medium contained 5% FBS2. 24 hours later, 100 μl fresh medium was added with various concentrations of compounds into each well, while the medium here was free of FBS.3. After the cells were treated with compounds for 72 hours, 20 μl MTT (5 mg/ml) was added into each well, and then the assay plate was incubated at 37° C. for 4 more hours.4. The assay plate was centrifuged at 800 g for 10 min. The medium was aspirated, 150 μl DMSO was added into each well. The plate was gently shaken for 10 min.5. The absorbance at 570 nm was measured on the plate reader.6. IR %=(WC−WT)/WC×100%.

IC50: < 100 nM
SMILES: C#Cc1cccc(Nc2ncnc3cc(O[C@H]4CCOC4)c(NC(=O)/C=C/CN(CC)CC)cc23)c1
